{"source": "paper PMC10014103", "about": "“The immunometabolite itaconate stimulates OXGR1 to promote mucociliary clearance during the pulmonary innate immune response” (The Journal of Clinical Investigation, 2023)", "test_system": "human OXGR1 orthosteric site mutants", "experiment": "Aequorin assay in HEK293 cells expressing mutant human OXGR1", "format": "cell-based", "conditions": "effect of mutation on ligand-stimulated calcium response", "experimental": "Thirty-six hours after transfection, cells were maintained in serum-free medium for 12 hours and then loaded with 5 μM coelenterazine for 3 hours. Cells were trypsinized and resuspended at a density of 5 × 10^5 cells/mL in HBSS supplemented with 10 mM HEPES and 0.5% BSA. Cell suspensions of 100 μL were aliquoted into 96-well plates.", "data": [{"smiles": "O=C(O)CCC(=O)C(=O)O", "note": "[α-KG, α-ketoglutaric acid, reference compound]", "values": [{"measurement": "calcium response, mutants C106A, R110A, H258A, R261A, I265A", "value": "completely abolished"}, {"measurement": "calcium response, mutants H114A, Y118F, I121A, I285A, R288A", "value": "dramatically impaired"}]}]}
